Source: publication PMC5830615 (Scientific Reports, 2018)

Protein sequences, listed by entry. Tags and fused reporters are not part of them.
UniProt P49146, whole entry: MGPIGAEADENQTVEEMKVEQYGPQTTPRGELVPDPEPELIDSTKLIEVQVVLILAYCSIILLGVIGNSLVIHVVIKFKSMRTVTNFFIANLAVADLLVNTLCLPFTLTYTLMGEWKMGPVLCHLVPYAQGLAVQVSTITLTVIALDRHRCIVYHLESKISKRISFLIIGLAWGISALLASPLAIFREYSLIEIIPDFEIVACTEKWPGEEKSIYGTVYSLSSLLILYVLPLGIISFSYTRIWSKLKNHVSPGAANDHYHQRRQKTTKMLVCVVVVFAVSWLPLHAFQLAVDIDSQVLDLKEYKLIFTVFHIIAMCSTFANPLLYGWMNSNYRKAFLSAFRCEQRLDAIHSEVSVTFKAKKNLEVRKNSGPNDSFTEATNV

How the values were obtained:
human NPY2R [1] = molecular target: T1, human NPY2R (Homo sapiens, UniProt P49146); test: FRET assay, inhibition of forskolin-stimulated cAMP production in HEK293-H188-C24 cells transfected with human NPY2R; assay type: cell-based; conditions: forskolin 2 μM + IBMX 100 μM; PYY(1–36) at 3,000 nM
T1 construct: 3xHA (own knowledge: 'TN' in the cDNA Resource Center clone ID denotes an N-terminal 3xHA tag); host or cells: HEK293-H188-C24 (transient transfection, pcDNA3.1)
Method: Transient transfections were performed using Lipofectamine and Plus Reagent (Thermo Fisher) using methodology described previously by our laboratory for HEK293 cells. […] Plasmid encoding human NPY2R (I.D. NPYR20TN00) in pcDNA3.1 was from the University of Missouri-Rolla cDNA Resource Center (Rolla, MO). Individual clones of HEK293 cells stably expressing select FRET reporters were obtained by G418 antibiotic resistance selection, as described previously. Adenovirus for transduction of HEK293 cells with H188 was generated by a commercial vendor (ViraQuest, North Liberty, IA) using the shuttle vector pVQAd CMV K-NpA and the H188 plasmid originally created by Klarenbeek and co-workers[30].
HEK293-H188-C24 cells stably expressing H188 were plated at 80% confluence on 96-well clear-bottom assay plates (Costar 3904, Corning, NY) coated with rat tail collagen (Collaborative Biomedical Products, Bedford, MA). […] Real-time kinetic assays of FRET were performed using a FlexStation 3 microplate reader equipped with monochromators (Molecular Devices, Sunnyvale, CA). Excitation light was delivered at 435/9 nm (455 nm cut-off), and emitted light was detected at 485/15 nm (CFP) or 535/15 nm (YFP)[31],[34]–[36]. […]

human NPY2R [2] = molecular target: T1, human NPY2R; test: Fura-2 assay of cytosolic [Ca2+] in HEK293 cells transfected with NPY2R; assay type: cell-based; conditions: Fura-2, 96-well, compared with carbachol and ATP

## PYY(1–36)
Human NPY2R [1]
  Effect on forskolin-stimulated cAMP production in presence of IBMX: nearly identical findings
Human NPY2R [2]
  Ability to raise cytosolic [Ca2+]: weak
